Test: Solubility of wild-type and mutant EGFs in 20 mM sodium phosphate (pH 5.5)
Type: physicochemical
Settings: for Solubility: 1 mg in 1 ml 20 mM sodium phosphate pH 5.5, supernatant, Bradford and UV method; for Solubility (Comparison with wild-type %): 20 mM sodium phosphate pH 5.5, relative to wild-type EGF
Experimental: 1 mg of the respective wild-type and mutant EGFs prepared was dissolved in 1 ml of 20 mM sodium phosphate (pH 5.5 that is the similarly pH environment as cosmetics). In order to remove undissolved EGF, the mixture thus obtained was centrifuged and then supernatant was obtained. The concentration of the supernatant thus obtained was measured by using a Bradford method and UV method.

Row | Substance | Solubility [µg/mL] | Solubility (Comparison with wild-type %) [%]
1 | B-19-3: EGF mutant, 19th valine substituted with glutamic acid (SEQ ID NO: 68) (NSDSECPLSHDGYCLHDGECMYIEALDKYACNCVVGYIGERCQYRDLKWWELR; Epidermal growth factor; UniProt P01133 971-1023, looked up, variant V19E) | 482.2 | 95
2 | D-34-2: EGF mutant, 34th valine substituted with glutamic acid (SEQ ID NO: 76) (NSDSECPLSHDGYCLHDGVCMYIEALDKYACNCEVGYIGERCQYRDLKWWELR; Epidermal growth factor; UniProt P01133 971-1023, looked up, variant V34E) | 574.1 | 113
3 | D-35-6: EGF mutant, 35th valine substituted with glutamic acid (SEQ ID NO: 80) (CNCVEGYIGE) | 532.8 | 105
4 | D-38-9: EGF mutant, 38th isoleucine substituted with serine (SEQ ID NO: 83) (CNCVVGYSGE) | 497.2 | 98
